Assay outcomes (PubChem)
Shown are actives, neighbours in structure and some others; about 3.7% of the full set was active somewhere.
Nrf2 ARE act: activators of Nrf2 (ARE) signaling; AID 624171; AREc32 ARE-luciferase reporter (MCF7-derived line), luminescence, 24 h; Potency, µM (top dose mostly 46.1 µM), for the others: at the highest dose activation, usual class: activators; hit rate 0.31% among 410,000; also: potency is read from the fitted curve at half-maximal effect; % of control where 0% means no effect; nearly all actives have a fitted effect of over 65% in size
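Each well held 1000 AREc32 cells, which were incubated with compound for 24 hr at 37 deg C after overnight attachment, and ARE reporter activity was quantified by firefly luciferase luminescence.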
Nrf2 inh: Nrf2 pathway inhibition. A549 ARE-Fluc reporter, luciferase luminescence, 18-24 h. Potency, µM (highest dose often 46 µM), without a hit: at the highest dose activity change, negative = inhibition, hits mostly inhibitors. hit rate 2.1% among 360,000. AID 504444; also: potency is read from the fitted curve at half-maximal effect; % is scaled to controls: 0 for no effect and ±100 for the full control effect; nearly all actives have a fitted effect of over 60% in size
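Two sequential reads on A549 ARE_Fluc cells exposed to compound for 18-24 h: a CellTiter-Fluor fluorescence read for viability, then a luciferase luminescence read for Nrf2/ARE activity.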
ClpP mod: qHTS Assay for Activators of ClpP. Potency, µM (doses to about 57.5 µM), for inactives: at the top dose activity change, negative = active. purified B. subtilis ClpP, FRET peptide cleavage, 20 min. ATP-dependent Clp protease proteolytic subunit (Bacillus subtilis (strain 168)), P80244. hit rate 1.9% among 340,000; active = well fitted falling curve with a large enough effect; inconclusive = small, poorly fitted or top-dose-only effect; inactive = no such curve, though single readings can be large or run the other way; also: potency is read from the fitted curve at half-maximal effect; the source files actives as falling curves though it sought activators and does not explain the sign; nearly all actives have a fitted effect of over 65% in size
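FRET quenching reversal measured ClpP activation: 10 microg/mL B. subtilis ClpP at pH 8 with the FRET-FV decapeptide, read at 430 nm after 320 nm excitation. The 20-min minus 0-min signal was scaled between DMSO/no-enzyme wells and ADEP (5.8 microM final).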
p53 reactivator: restores transcriptional activity of mutant p53. hit rate 0.063% among 320,000. AID 504706. Potency, µM (highest dose often 92.2 µM), inactives show top-dose activity change, positive = activation, most hits filed as activators. H1299 p53-A138V BP100-luciferase reporter, luminescence, 24 h; also: potency is read from the fitted curve at half-maximal effect; % of control where 0% means no effect; nearly all actives have a fitted effect of over 45% in size
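H1299 (p53-null), stable ts p53-A138V + BP100-Luc; 1000 cells/well, Opti-MEM/10% FBS; cpd 4 pt, 1:5; 24 h, 37 deg C, 5% CO2; detection reagent 10 min RT; luminescence.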
A549 viability: counter-screen for Nrf2 inhibitors: cytotoxicity in A549 cells; Potency, µM (top dose mostly 46 µM), without a hit: at the top dose activity change, negative = cytotoxicity, hits mostly inhibitors; A549 ARE-Fluc cells, CellTiter-Fluor viability, 18-24 h; hit rate 0.16% among 390,000; also: potency is read from the fitted curve at half-maximal effect; % is scaled to controls: 0 for no effect and ±100 for the full control effect
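A549 ARE-Fluc cells in 5% FBS OPTI-MEM, 5000 cells/well, rested 2 h then exposed to compounds in concentration-response for 18-24 h at 37 °C. Viability by CellTiter-Fluor fluorescence (Ex 405/Em 525) after 30 min; luciferase luminescence (BugLite, 15 min, RT) read afterwards.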
miR-21 reporter: miR-21 reporter, rising signal | HeLa miR-21 FLuc reporter, luciferase, 48 h | Potency, µM (top dose mostly 38.3 µM), inactives show at the top dose reporter change, positive = more light | 340,000 tested, under 10 active | AID 2288; active = well fitted rising curve with a large enough effect; inconclusive = small, poorly fitted or top-dose-only effect; inactive = no such curve, though single readings can be large or run the other way;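 further: % of control where 0% means no effect; miR-21 action dims this reporter so a rising signal means less miR-21 action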
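HeLa miR-21-FLuc reporter line, endogenous miR-21; 2000 cells/well in DMEM/10% FBS; compound titration up to ~40uM final, 48 h, 37 degree Celsius; luciferase detection reagent, 15 min lysis, CCD luminescence.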
The depositor's hits bear a star; ? = inconclusive; . = no result. Unless noted, calls follow the shape of the dose curve; as a rule, active = well fitted curve in the direction sought with a large enough effect; inconclusive = small, poorly fitted or top-dose-only effect, or another doubt; inactive = no such curve, though single readings can be large; an effect the other way counts as inactive or inconclusive.

#1 CCOc1ccc(OCC)c(NC(=O)CSc2nc3c(c(=O)n(C)c(=O)n3C)n2C(C)C)c1
#2 O=Cc1ccc2ccc3cccnc3c2n1
#3 c1cnc2c(c1)ccc1cccnc12
#4 O=C(CSc1nc(C2CC2)nc2ccccc12)N1c2ccccc2Sc2ccccc21
#5 Nc1c(N2CCCC2)cc(Cl)c2nonc12
#6 CCOC(=O)CN1C(=O)N(c2ccc(C)c(C)c2)S(=O)(=O)c2ccccc21
#7 CCOC(=O)/C=C1\CN(Cc2cc(OC)c(OC)c(OC)c2)S(=O)(=O)c2ccc(C(F)(F)F)cc21
#8 Cc1cccc(NC(=O)c2cccc(N3CCCS3(=O)=O)c2)c1
assay / compound | 1 | 2 | 3 | 4 | 5 | 6 | 7 | 8
Nrf2 ARE act | 4.2% | 5.1% | 9.6% | 0.4% | 0.8% | 0.7% | 2.3% | 7.2%
Nrf2 inh | 16.4µM* | 12.6% | 5.8µM* | -25.7% | 16.4µM* | . | 20.6µM* | 18.9%
ClpP mod | 1.8% | . | 0.3% | 12.6µM* | -19.9% | -2.5% | 1.7% | 0.7%
p53 reactivator | 6.3% | 15.0% | -1.2% | 3.2% | -36.0% | . | . | .
A549 viability | -9.4% | -1.7% | ? | 10.6% | ? | -23.8% | 0.0% | -0.2%
miR-21 reporter | 5.5% | -0.6% | 24.5% | -1.8% | -5.9% | 6.3% | 14.4% | -30.5%

#9 CCOC(=O)N1CCN(C(=O)c2cccn3c(=O)c4sccc4nc23)CC1
#10 CCOc1ccc(-n2c(N)c(C(=O)NCc3ccco3)c3nc4ccccc4nc32)cc1
#11 CCOC(=O)c1ccc(-n2c(N)c(C(=O)OC)c3nc4ccccc4nc32)cc1
#12 CCOC(=O)c1c(N)n(CCOC(=O)c2cccs2)c2nc3ccccc3nc12
#13 Nc1c(C(=O)NCc2ccco2)c2nc3ccccc3nc2n1CCc1ccccc1
#14 Cc1ccc(CNC(=O)CSc2c(C(C)C)cnc3c2c(=O)n(C)c(=O)n3C)cc1
#15 O=C(NCC1CCCO1)c1c[nH]c2ccc(S(=O)(=O)Nc3cccc(C(F)(F)F)c3)cc2c1=O (stereo not given)
#16 CC(=O)N(C)c1ccc(NC(=S)Nc2cccc3ccccc23)cc1
assay / compound | 9 | 10 | 11 | 12 | 13 | 14 | 15 | 16
Nrf2 ARE act | -0.8% | 11.2µM* | 4.8% | 0.0% | 0.8% | -0.8% | 0.1% | 5.9%
Nrf2 inh | 7.6% | 21.3% | . | -13.7% | ? | . | . | ?
ClpP mod | 25.1µM* | ? | 2.82µM* | 7.94µM* | 3.9% | -2.3% | -14.2% | 31.6µM*
p53 reactivator | -17.4% | -0.4% | . | -6.6% | -21.2% | . | . | ?
A549 viability | 6.6% | 6.2% | 0.2% | ? | 5.1% | 1.5% | 9.0% | 9.7%
miR-21 reporter | -8.2% | -5.8% | -11.9% | -1.9% | ? | -0.8% | -0.9% | -53.0%

#17 CCc1ccc(S(=O)(=O)Nc2c(NC3CCCCC3)c3ccccc3oc2=O)cc1
#18 O=c1oc2ccccc2c(NC2CCCCC2)c1NS(=O)(=O)c1ccc(F)cc1
#19 CCOC(=O)C1(Cc2cccc(Cl)c2)CCCN(C(=O)c2cc(C)on2)C1 (stereo not given)
#20 CCOC(=O)C1(Cc2cccc(Cl)c2)CCCN(C(=O)c2cc(C)[nH]n2)C1 (stereo not given)
#21 COc1ccc(CN(C)C(=O)C2CSC3(C)CCC(=O)N23)c(OC)c1 (stereo not given)
#22 O=C(NCc1ccc(Cl)cc1)c1cnc(N2CCOCC2)c2ccccc12
#23 COc1cccc(CN2C(=O)C(C)N(C(=O)c3c(F)cccc3F)c3ccccc32)c1 (stereo not given)
#24 CC1C(=O)N(Cc2ccccc2F)c2ccccc2N1C(=O)c1c(F)cccc1F (stereo not given)
assay / compound | 17 | 18 | 19 | 20 | 21 | 22 | 23 | 24
Nrf2 ARE act | -0.5% | 0.7% | 3.4% | 3.3% | -1.4% | 1.0% | -0.4% | -0.4%
Nrf2 inh | 25.9µM* | ? | 0.1% | -7.4% | . | . | 20.6µM* | ?
ClpP mod | -7.6% | -3.9% | -3.0% | 28.2µM* | 1.6% | -12.1% | 1.4% | -0.1%
p53 reactivator | -1.1% | -3.8% | ? | -4.1% | . | . | -5.3% | -5.7%
A549 viability | -18.4% | -5.7% | -4.3% | 0.6% | . | -0.4% | -6.8% | 1.2%
miR-21 reporter | 6.3% | 4.1% | -32.9% | -9.2% | . | 6.9% | ? | 26.3%

#25 COc1cc2[nH]c(=O)n(CCC(=O)NC3CCCC3)c(=O)c2cc1OC
#26 CCC(C)NC(=O)CCCCCn1c(=O)[nH]c2cc(OC)c(OC)cc2c1=O (stereo not given)
#27 CCCCNC(=O)CCCCCn1c(=O)[nH]c2cc(OC)c(OC)cc2c1=O
#28 CCCCCNC(=O)CCCCn1c(=O)[nH]c2cc(OCC)c(OCC)cc2c1=O
#29 CC(C)CC1N=C2c3ccccc3N=C(SCC(=O)NCCc3ccc(Cl)cc3)N2C1=O (stereo not given)
#30 COc1cc(Cl)c(NC(=O)CCS(=O)(=O)c2cc3c(cc2Cl)NC(=O)CO3)c(OC)c1
#31 COc1ccc(-c2cc3ccccc3n2CC(O)CN2CCN(CCO)CC2)cc1 (stereo not given)
#32 COc1ccc(-c2cc3ccccc3n2CC(O)CN2CCOCC2)cc1 (stereo not given)
assay / compound | 25 | 26 | 27 | 28 | 29 | 30 | 31 | 32
Nrf2 ARE act | 0.2% | -0.2% | -0.3% | 0.4% | 0.4% | 0.8% | 2.8% | 0.3%
Nrf2 inh | 18.3% | -8.7% | 7.2% | 3.4% | . | ? | ? | 0.2%
ClpP mod | 28.2µM* | 28.2µM* | 28.2µM* | ? | ? | -0.4% | 4.5% | 8.91µM*
p53 reactivator | -4.2% | -11.3% | -8.4% | 16.3% | . | . | -0.7% | -1.0%
A549 viability | 0.1% | -5.6% | -1.9% | -5.9% | -13.2% | 6.5% | 7.8% | -5.9%
miR-21 reporter | -2.3% | 3.1% | -4.8% | -7.9% | 2.6% | 9.3% | -9.8% | -10.5%

#33 Cc1cccc(NC(=O)c2cc(-c3ccc(C)s3)nc3ccccc23)n1
#34 CN(C)S(=O)(=O)c1cccc(NC(=O)c2cc(-c3cccs3)nc3ccccc23)c1
#35 Cc1cc(NC(=O)c2cc(-c3ccc(C)s3)nc3ccccc23)no1
#36 O=C(c1cc(-c2cccs2)nc2ccccc12)N1CCN(S(=O)(=O)c2cccc(F)c2)CC1
#37 O=C(c1cc(-c2cccs2)nc2ccccc12)N1CCN(S(=O)(=O)c2ccccc2)CC1
#38 COc1ccc(C2Nc3ccccc3C(=O)N2Cc2ccccc2)cc1Oc1ccc(NC(C)=O)cc1 (stereo not given)
#39 COC(=O)c1cccc(NC(=O)c2cccnc2)c1
#40 O=C(Nc1ccc(OCc2ccccc2)cc1)c1cccnc1
#41 O=C(N/N=C/c1cccnc1)c1cccc(NC(=O)c2ccc(Cl)cc2)c1
assay / compound | 33 | 34 | 35 | 36 | 37 | 38 | 39 | 40 | 41
Nrf2 ARE act | 2.8% | 12.0% | -0.1% | 6.6% | 0.2% | . | 2.2% | 0.3% | -0.8%
Nrf2 inh | -24.0% | -1.5% | 11.2% | -11.9% | 3.0% | ? | -11.2% | 11.1% | 18.4µM*
ClpP mod | 15.8µM* | 15.8µM* | 5.2% | 28.2µM* | 25.1µM* | . | 14.1µM* | 0.5% | .
p53 reactivator | -5.2% | -9.0% | 9.7% | 2.3% | -1.7% | . | -2.1% | 9.2% | 1.2%
A549 viability | -4.9% | -1.6% | -1.0% | -0.7% | -3.0% | -11.2% | -4.7% | -2.0% | 0.1%
miR-21 reporter | 21.8% | 17.9% | -0.5% | 16.7% | 10.6% | . | -6.8% | -20.6% | 1.4%

Shown as labelled records: part of the list above.
34: CN(C)S(=O)(=O)c1cccc(NC(=O)c2cc(-c3cccs3)nc3ccccc23)c1
- Nrf2 ARE act: 12.0%
- Nrf2 inh: -1.5%
- ClpP mod: 15.8µM*
- p53 reactivator: -9.0%
- A549 viability: -1.6%
- miR-21 reporter: 17.9%

41: O=C(N/N=C/c1cccnc1)c1cccc(NC(=O)c2ccc(Cl)cc2)c1
- Nrf2 ARE act: -0.8%
- Nrf2 inh: 18.4µM*
- ClpP mod: .
- p53 reactivator: 1.2%
- A549 viability: 0.1%
- miR-21 reporter: 1.4%

33: Cc1cccc(NC(=O)c2cc(-c3ccc(C)s3)nc3ccccc23)n1
- Nrf2 ARE act: 2.8%
- Nrf2 inh: -24.0%
- ClpP mod: 15.8µM*
- p53 reactivator: -5.2%
- A549 viability: -4.9%
- miR-21 reporter: 21.8%

39: COC(=O)c1cccc(NC(=O)c2cccnc2)c1
- Nrf2 ARE act: 2.2%
- Nrf2 inh: -11.2%
- ClpP mod: 14.1µM*
- p53 reactivator: -2.1%
- A549 viability: -4.7%
- miR-21 reporter: -6.8%
